The record followed here is PubChem BioAssay AID1259422 (The Scripps Research Institute Molecular Screening Center, 2018).

Only a part is listed here, and it is no random draw. Some tests of the compounds listed are not included; inactive here does not mean inactive elsewhere. The source made the active and inactive calls. Rule as the data show it: active = inhibition above about 32%; inactive = the rest.

This experiment is described as follows: TEAD-YAP interaction inhibition, primary screen, TEAD-YAP interaction inhibitor project, luminescence, HEK-TIYL cells (AID 1259422).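 Also: 0% = median of test compound wells and 100% = reference inhibitor wells.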 The note with it: TEAD-Gal4/YAP UAS-luciferase luminescence, at 9.12 µM, stronger effect = higher value.
The term inhibition denotes the drop in the measured response relative to a control, in per cent. Turning to `CC(CCN(C)C)OC(=O)C(O)(c1ccccc1)c1ccccc1` (stereo not given), the inhibition is inactive: -1.69%.

Regarding `CN(C)C1(CNC(=O)c2n[nH]c3ccccc23)CCCCC1`, the inhibition is inactive: 4.65%.

Take `CN(C)C1CCCC1OC(=O)C(O)(c1ccccc1)c1ccccc1` (stereo not given): the inhibition is inactive: 0.26%.

For `CN(C)c1ccc(C(=O)NCC2(N(C)C)CCCCC2)cc1`, the inhibition was inactive: 0.46%.

As for `COc1ccc(C(=O)NCC2(N(C)C)CCCCC2)cc1`, the inhibition is inactive: -6.37%.

Regarding `CC(C)N(CCOC(=O)C(O)(c1ccccc1)c1ccccc1)C(C)C`, the inhibition is inactive: -2.27%.

For `O=C(NCC1(N2CCOCC2)CCCCC1)c1cnc(Cl)c(Cl)c1`, the inhibition was inactive: 0.75%.

`CN1CCCC(COC(=O)C(O)(c2ccccc2)c2ccccc2)C1` (stereo not given): the inhibition is inactive: -13.1%.

In the case of `COc1cc(SC)ccc1C(=O)NCC1(N(C)C)CCCCC1`, the inhibition is inactive: -9.03%.

As to `CN(C)C1(CNC(=O)c2c(F)cccc2F)CCCCC1`, the inhibition was inactive: -0.9%.

For `CC(C)Oc1ccc(C(=O)NCC2(N(C)C)CCCCC2)cc1`, the inhibition was inactive: 0.54%.

For the compound `CN(C)c1cccc(C(=O)NCC2(N(C)C)CCCCC2)c1`, the inhibition was inactive: 1.91%.

`CN1C2CCC1CC(OC(=O)C(O)(c1ccccc1)c1ccccc1)C2` (stereo not given): the inhibition was inactive: -10.1%.

`COc1cccc(C(=O)NCC2(N3CCCCC3)CCCCC2)c1`: the inhibition was inactive: 1.65%.

Turning to `COc1ccc(Cl)cc1C(=O)NCC1(N(C)C)CCCCC1`, the inhibition is inactive: -7.92%.
